Earlier results as cited in article PMC12018770, “DEAD‐Box Helicase 6 Blockade in Brain‐Derived Aβ Oligomers From Alzheimer's Disease Patients Attenuates Neurotoxicity” (MedComm, 2025).

Test system: AD patients
Conditions: ref [11], [12], [13], [14]; cited from earlier work
Source text: Various Aβ antibody drugs designed to clear Aβ plaques from the brain have shown promising therapeutic effects in animal models (e.g., AD mice). […] Thus, DDX6‐targeting treatments in the early stages of Aβ aggregation could prevent the formation of Aβ oligomers and attenuate their neurotoxicity, potentially avoiding the side effects associated with s ...

Substance | efficacy in clinical trials (in words)
aducanumab [reference compound] | its efficacy in slowing or halting AD progression remains controversial
bapineuzumab [reference compound] | failed to demonstrate efficacy in improving cognitive function during key clinical trials
